Measured values published in patent publication US20170173180A1, “CANCER IMMUNOTHERAPY COMPOSITIONS AND METHODS” (THE REGENTS OF THE UNIVERSITY OF MICHIGAN, priority 2014, published 2017).

Test system: 4T1 spontaneous pulmonary metastases
Assay: Adoptive TDLN B cell therapy of 4T1 cancer, first model (WT vs IL-10−/− B cells), enumeration of pulmonary metastatic nodules
Format: in vivo, BALB/c mice
Settings: IL-2 alone, i.p.
Procedure: In the first model using IL-10^−/− TDLN B cells, healthy BALB/c mice were inoculated with 5×10^4 4 T1 cells into the mammary fat pad to induce spontaneous pulmonary metastases. Fourteen days after tumor inoculation, the tumor-bearing mice were treated with tail vein injection of activated WT or IL-10^−/− 4T1 TDLN B cells. Commencing on the day of the effector B cell transfer, intraperitoneal (i.p.) injections of IL-2 (40,000 IU) (Novartis, Emeryville, Calif.) were administered in 0.5 ml of PBS and continued twice daily for 8 doses. About 2 weeks after B cell transfer, all mice were sacrificed and lungs were harvested for enumeration of spontaneous pulmonary metastatic nodules as previously described (Li, Q., et al., J. Immunol. 2009. 183: 3195-3203; Li, Q., et al., Clin. Cancer Res. 2011. 17: 4987-4995).

In the case of “IL-2: IL-2 (Novartis) given i.p., 40,000 IU twice daily for 8 doses”, the “reduction in pulmonary metastases compared with PBS-treated controls” value was “modest, but not significant reduction”.
